From US4464385A, “Treatment of diabetic complications with hydantoins” (Alcon Laboratories, Inc., priority 1982, dated 1984) come the findings set out here.

Molecules are shown by their SMILES. Several values for one entry are separate records, joined by “and”; a condition that tells them apart may be missing. Identical values can stand only once.

In the assay the target is T1, aldose reductase enzyme obtained from rat lens (Rattus norvegicus, UniProt P07943).
T1 construct: partially purified aldose reductase enzyme obtained from rat lens; from tissue; host or cells: rat lens
Put plainly: Inhibition of partially purified aldose reductase from rat lens. The format is biochemical. The following applies: IC50 (concentration of drug that inhibits 50% of the enzyme activity). From the text: In every case the substrate employed was partially purified aldose reductase enzyme obtained from rat lens or human placenta.

As a reminder, the IC50 is the point on the concentration scale where inhibition reaches its midpoint.

`O=C1NC(=O)C2(CCOc3ccc(F)cc32)N1` (single isomer, unassigned) [SARGES**]: the half-inhibitory concentration (IC50) was 0.27 µM and 0.61 µM.
